How the values were obtained:
human H3 receptor = human H3 receptor (Homo sapiens, UniProt Q9Y5N1); assay: Human H3 radioligand binding ([3H]-N-alpha-methylhistamine, SPA); conditions: read-out: Human Ki, Table A
Description: Methods: CHO cells stably expressing the human H3 receptor (GenBank: NM_007232) were harvested and cell pellets were frozen (−80° C.). Cell pellets were resuspended in 5 mM Tris-HCl, pH 7.5 with […] and a cocktail of protease inhibitors (Complete Protease Inhibitior Tablets, Roche Diagnostics). Cells were disrupted using a polytron cell homogenizer and the suspension was centrifuged at 1000×g for 10 minutes at 4° C. The pellet was discarded and the supernatant centrifuged at 40,000×g for 30 min at 4° C. This membrane pellet was washed in membrane buffer containing 50 mM Tris-HCl, pH 7.5 with 0.6 mM EDTA, 5 mM MgCl2 and protease inhibitors, recentrifuged as above and the final pellet resuspended in membrane buffer plus 250 mM sucrose and frozen at −80° C.
Radioligand Binding. Membranes were resuspended in 50 mM Tris HCl (pH 7.4), 5 mM MgCl2, 0.1% BSA. The membrane suspensions (10 μg protein per well) were incubated in a 96 well microtiter plate with [^3H]-N-alpha-methylhistamine (approximately 1 nM final concentration), test compounds at various concentrations (0.01 nM-30 μM) and scintillation proximity beads (Perkin Elmer, FlashBlueGPCR Scintillating Beads) in a final volume of 80 μl for 4 hours at room temperature, protected from light. Non-specific binding was determined in the presence of 10 μM clobenpropit. Radioligand bound to receptor, and therefore in proximity to the scintillation beads, was measured using a MicroBeta scintillation counter.

By UniProt entry, the sequences of proteins in these tests, tags left out.
UniProt Q9Y5N1, whole entry: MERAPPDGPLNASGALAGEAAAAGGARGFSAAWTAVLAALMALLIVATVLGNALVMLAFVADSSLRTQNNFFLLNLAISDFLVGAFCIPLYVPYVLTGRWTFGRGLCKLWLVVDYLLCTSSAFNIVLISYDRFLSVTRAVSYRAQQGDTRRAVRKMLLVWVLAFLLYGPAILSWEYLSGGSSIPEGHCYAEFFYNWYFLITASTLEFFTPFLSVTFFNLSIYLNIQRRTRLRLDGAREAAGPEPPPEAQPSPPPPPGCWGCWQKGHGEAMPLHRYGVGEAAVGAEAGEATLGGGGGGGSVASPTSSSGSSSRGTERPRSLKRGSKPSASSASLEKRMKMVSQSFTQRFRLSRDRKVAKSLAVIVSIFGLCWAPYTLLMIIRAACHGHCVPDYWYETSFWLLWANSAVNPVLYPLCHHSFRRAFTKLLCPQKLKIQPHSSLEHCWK
UniProt Q9QYN8, whole entry: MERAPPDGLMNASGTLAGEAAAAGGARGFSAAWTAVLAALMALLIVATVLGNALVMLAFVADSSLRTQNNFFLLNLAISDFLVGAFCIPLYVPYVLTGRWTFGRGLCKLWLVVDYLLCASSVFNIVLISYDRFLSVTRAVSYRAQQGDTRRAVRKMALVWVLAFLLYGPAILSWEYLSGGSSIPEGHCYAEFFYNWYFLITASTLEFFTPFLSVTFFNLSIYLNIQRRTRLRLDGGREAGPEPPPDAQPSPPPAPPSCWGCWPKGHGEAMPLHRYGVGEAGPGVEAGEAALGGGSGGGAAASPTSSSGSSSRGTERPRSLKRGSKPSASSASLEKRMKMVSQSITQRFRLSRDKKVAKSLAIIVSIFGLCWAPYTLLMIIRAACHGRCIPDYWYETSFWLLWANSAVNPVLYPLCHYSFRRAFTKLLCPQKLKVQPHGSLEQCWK

[1] = target: rat histamine H3 receptor (Rattus norvegicus, UniProt Q9QYN8); assay: Rat H3 radioligand binding ([3H]-N-alpha-methylhistamine, SPA); conditions: read-out: Rat Ki, Table A

Row | Structure (SMILES) | Ki (human H3 receptor) [µM] | Ki [1] [µM]
1 | O=C1COCCN1c1ccc2c(c1)COC1(CCN(C3CCC3)CC1)O2 | < 0.2 | 0.2 to 1
2 | N#Cc1cccc(-c2ccc3c(c2)COC2(CCN(C4CCC4)CC2)O3)c1 | < 0.2 | < 0.2
3 | CNS(=O)(=O)c1ccc(-c2ccc3c(c2)COC2(CCN(C4CCC4)CC2)O3)cc1 | < 0.2 | < 0.2
4 | Cc1nnc(-c2ccc(-c3ccc4c(c3)COC3(CCN(C5CCC5)CC3)O4)cc2)o1 | < 0.2 | < 0.2
5 | c1cc2c(cc1-c1ccc3c(c1)COC1(CCN(C4CCCC4)CC1)O3)CCO2 | < 0.2 | 
6 | O=C1C[C@H](O)CN1c1ccc2c(c1)COC1(CCN(C3CCC3)CC1)O2 | 0.2 to 1 | 0.2 to 1
7 | O=C(c1ccc(-c2ccc3c(c2)COC2(CCN(C4CCC4)CC2)O3)cc1)N1CC[C@@H](O)C1 | < 0.2 | < 0.2

Reference: US8513232B2, “Substituted spirocyclic piperidine derivatives as histamine-3 (H3) receptor ligands” (Cephalon, Inc., priority 2008, dated 2013)
